Measurements published in patent US9181266B2, “2-piperidin-1-yl-acetamide compounds for use as tankyrase inhibitors” (NOVARTIS AG, priority 2011, dated 2015).

Amino acid sequences for entries named in this document (tags omitted). A change or cut given only in a name is not applied to a line headed by its entry.
UniProt O88554: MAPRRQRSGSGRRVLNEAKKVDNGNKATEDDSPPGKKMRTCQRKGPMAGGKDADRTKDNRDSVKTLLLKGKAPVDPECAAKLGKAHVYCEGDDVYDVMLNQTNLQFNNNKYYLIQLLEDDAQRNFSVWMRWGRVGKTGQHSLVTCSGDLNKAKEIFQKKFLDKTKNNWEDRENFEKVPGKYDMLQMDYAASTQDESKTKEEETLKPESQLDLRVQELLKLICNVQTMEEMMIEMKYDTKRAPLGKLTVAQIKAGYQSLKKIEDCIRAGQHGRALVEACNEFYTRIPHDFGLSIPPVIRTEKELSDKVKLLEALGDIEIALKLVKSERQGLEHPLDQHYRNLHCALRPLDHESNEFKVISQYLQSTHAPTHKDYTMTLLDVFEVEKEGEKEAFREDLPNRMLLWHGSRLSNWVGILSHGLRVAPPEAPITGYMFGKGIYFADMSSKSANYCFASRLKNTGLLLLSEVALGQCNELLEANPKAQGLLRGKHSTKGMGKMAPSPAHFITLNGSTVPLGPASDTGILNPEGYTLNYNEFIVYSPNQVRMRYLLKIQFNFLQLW
UniProt P09874, whole entry: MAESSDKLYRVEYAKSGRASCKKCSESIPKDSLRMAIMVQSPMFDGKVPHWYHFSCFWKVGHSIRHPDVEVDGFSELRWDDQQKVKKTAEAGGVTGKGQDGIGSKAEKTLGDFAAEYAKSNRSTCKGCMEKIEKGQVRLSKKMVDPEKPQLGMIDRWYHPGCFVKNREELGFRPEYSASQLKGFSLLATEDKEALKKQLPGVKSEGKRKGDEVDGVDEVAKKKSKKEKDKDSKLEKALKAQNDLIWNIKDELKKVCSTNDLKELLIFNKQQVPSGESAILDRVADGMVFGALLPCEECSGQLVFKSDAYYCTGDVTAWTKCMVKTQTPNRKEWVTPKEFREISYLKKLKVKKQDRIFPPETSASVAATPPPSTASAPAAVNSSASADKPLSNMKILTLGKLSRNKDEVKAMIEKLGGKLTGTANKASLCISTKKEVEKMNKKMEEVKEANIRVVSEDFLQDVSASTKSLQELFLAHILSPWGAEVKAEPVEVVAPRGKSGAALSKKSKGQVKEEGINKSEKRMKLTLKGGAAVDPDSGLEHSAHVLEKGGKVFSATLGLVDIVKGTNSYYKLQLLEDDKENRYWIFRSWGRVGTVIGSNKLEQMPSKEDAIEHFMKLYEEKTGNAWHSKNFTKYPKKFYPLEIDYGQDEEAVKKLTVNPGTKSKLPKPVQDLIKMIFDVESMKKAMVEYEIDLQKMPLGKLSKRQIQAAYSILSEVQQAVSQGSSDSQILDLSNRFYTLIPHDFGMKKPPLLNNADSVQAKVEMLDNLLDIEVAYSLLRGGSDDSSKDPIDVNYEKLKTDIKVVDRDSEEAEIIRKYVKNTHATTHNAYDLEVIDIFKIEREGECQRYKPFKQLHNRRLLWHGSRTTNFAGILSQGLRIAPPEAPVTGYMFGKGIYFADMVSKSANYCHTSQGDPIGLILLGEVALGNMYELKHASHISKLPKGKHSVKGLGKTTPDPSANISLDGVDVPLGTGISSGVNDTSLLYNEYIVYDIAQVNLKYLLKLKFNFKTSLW

How the values were obtained:
PARP2 = PARP2 (Mus musculus (Mouse), UniProt O88554); test: PARP2 autoparsylation assay (LC/MS detection of nicotinamide); format: biochemical; details: 20 nM enzyme, 250 μM β-NAD+, 60 min
Protocol: (§1) The autoparsylation activity of the TNKS 1/2 or PARP1/2 enzymes was measured by the liquid chromatography-mass spectrometry (LC/MS) detection of nicotinamide as readout. Compound activity in inhibiting the TNKS and PARP autoparsylation was evaluated by IC50 measurements.

Human PARP1 = Human PARP1 (Homo sapiens (Human), UniProt P09874); test: PARP1 autoparsylation assay (LC/MS detection of nicotinamide); format: biochemical; details: 20 nM enzyme, 250 μM β-NAD+, 60 min
Protocol: as §1

Row | IC50 (PARP2) [µM] | IC50 (Human PARP1) [µM] | SMILES
1 | 3.1 ± 1.1 |  | O=C(CN1CCC(C(=O)c2ccc(F)cc2)CC1)NCc1nc2c(c(=O)[nH]1)COCC2 [Example 1, 2-(4-(4-Fluorobenzoyl)piperidin-1-yl)-N-((4-oxo-4,5,7,8-tetrahydro-3H-pyrano[4,3-d]pyrimidin-2-yl)methyl)acetamide]
2 | > 19 | > 19 | CC(C)CN(Cc1nc2c(c(=O)[nH]1)COCC2)C(=O)CN1CCC(C(=O)c2ccc(F)cc2)CC1 [Example 26, 2-(4-(4-Fluorobenzoyl)piperidin-1-yl)-N-isobutyl-N-((4-oxo-4,5,7,8-tetrahydro-3H-pyrano[4,3-d]pyrimidin-2-yl)methyl)acetamide]
3 | > 19 |  | O=C(c1ccc(F)cc1)C1CCN(CC(=O)N(Cc2ccccc2)Cc2nc3c(c(=O)[nH]2)COCC3)CC1 [Example 38, N-Benzyl-2-(4-(4-fluorobenzoyl)piperidin-1-yl)-N-((4-oxo-4,5,7,8-tetrahydro-3H-pyrano[4,3-d]pyrimidin-2-yl)methyl)acetamide]

Row | SMILES | IC50 (PARP2) [µM] | IC50 (Human PARP1) [µM]
4 | O=C(c1ccc(F)cc1)C1CCN(CC(=O)N(Cc2nc3c(c(=O)[nH]2)COCC3)Cc2cccs2)CC1 [Example 13, 2-(4-(4-Fluorobenzoyl)piperidin-1-yl)-N-((4-oxo-4,5,7,8-tetrahydro-3H-pyrano[4,3-d]pyrimidin-2-yl)methyl)-N-(thiophen-2-ylmethyl)acetamide] | > 19 | 
